Laboratory results reported in patent US20240376109A1, “PYRAZOLO[1,5-A]PYRIMIDINE COMPOUND FOR THE TREATMENT OF DERMAL DISORDERS” (OTSUKA PHARMACEUTICAL CO., LTD., priority 2021, published 2024).

The chains behind the UniProt entries cited, without tags or fusion partners. Residues count along the entry.
UniProt P55085, 26-397 limits assumed: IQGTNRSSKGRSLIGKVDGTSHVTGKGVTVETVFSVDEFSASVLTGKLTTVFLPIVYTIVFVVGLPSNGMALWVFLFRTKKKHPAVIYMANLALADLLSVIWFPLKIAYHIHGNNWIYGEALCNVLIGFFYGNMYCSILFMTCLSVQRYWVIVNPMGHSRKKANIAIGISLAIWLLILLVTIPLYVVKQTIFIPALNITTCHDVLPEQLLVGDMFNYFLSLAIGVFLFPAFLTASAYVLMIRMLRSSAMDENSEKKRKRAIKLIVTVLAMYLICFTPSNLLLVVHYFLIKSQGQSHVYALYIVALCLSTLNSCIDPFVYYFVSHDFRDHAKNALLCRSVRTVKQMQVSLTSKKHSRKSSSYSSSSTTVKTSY

Biological target: PAR2 (Homo sapiens, UniProt P55085)
Test: Intracellular calcium concentration measurement (SLIGKV-NH2-induced calcium change, Fluo-8, FDSS/μCELL)
Format: cell-based
Conditions: HEK293 cells; SLIGKV-NH2 10 μM-induced intracellular calcium change

## CCC(CC)c1cc(CC2CCCC2)nc2cc(C(=O)N3CCCC(OC)C3(C)C)nn12 (centres unmarked)
  IC50: 41 nM

## CCC(C)c1cc(CC2CCCCCC2)nc2cc(C(=O)N3CCCCCCC3)nn12 (centres unmarked)
  IC50: 257 nM
